## Reported vapor pressure values for industrial, environmental and drug-like chemicals

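The OPERA project collected these measurements from public sources as training and test data for property models. One number stands for a compound and property, with no spread given. Method and conditions are not stated for these values. Where a salt, mixture or single isomer is drawn, the source does not say that exactly this form was tested. Some upstream entries may be estimates or bounds without being marked so.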

Vapor pressure is log10 of mmHg; the set covers 15 to 30 °C, mostly 20 to 25 °C.

For Clc1cccc(-c2ccc(Cl)cc2Cl)c1 the data give vapor pressure -3.625 (log10 mmHg).
For Nc1ccc(Cl)cc1Cl the data give vapor pressure -2.037 (log10 mmHg).
For Cc1cc(C(C)(C)C)c(OP2COC3(COP(Oc4c(C(C)(C)C)cc(C)cc4C(C)(C)C)OC3)OC2)c(C(C)(C)C)c1 (configuration not stated) the data give vapor pressure -9.084 (log10 mmHg).
For CCC1CCC(=O)O1 (configuration not stated) the data give vapor pressure 0.255 (log10 mmHg).
For Nc1cc(Cl)ccc1Cl the data give vapor pressure -0.727 (log10 mmHg).
For CC(=O)O[C@H]1CC[C@H]2[C@@H]3CC[C@H]4CC(=O)C[C@H](C)[C@]4(C)[C@H]3CC[C@]12C the data give vapor pressure -8.894 (log10 mmHg).
For CCc1cnc(C2=NC(C)(C(C)C)C(=O)N2)c(C(=O)O)c1 (configuration not stated) the data give vapor pressure -7.001 (log10 mmHg).
For Cl.NCC(O)c1ccc(O)cc1 (configuration not stated) the data give vapor pressure -4.736 (log10 mmHg).
For CCCCOP(=O)(OCCCC)Oc1ccccc1 the data give vapor pressure -2.155 (log10 mmHg).
For CC(C)CON=O the data give vapor pressure 1 (log10 mmHg).
For C#C[C@]1(O)CC[C@H]2[C@@H]3CCC4=CC(=O)CC[C@]4(C)[C@H]3CC[C@@]21C the data give vapor pressure -13.27 (log10 mmHg).
For Cc1ccc2nc(-c3ccc(/N=N/C4C(=O)NC(=O)NC4=O)cc3)sc2c1S(=O)(=O)O.OCCN(CCO)CCO the data give vapor pressure -3.415 (log10 mmHg).
For CC(C)(C)OOC(C)(C)c1ccc(C(C)(C)OOC(C)(C)C)cc1 the data give vapor pressure -6.171 (log10 mmHg).
For Cc1cc(C)cc(C(=O)N(NC(=O)c2ccc3c(c2C)CCCO3)C(C)(C)C)c1 the data give vapor pressure -10.52 (log10 mmHg).
For Clc1ccccc1C(Cl)Cl the data give vapor pressure -1.28 (log10 mmHg).
For Oc1c(Br)c(Br)c(Br)c(Br)c1Br the data give vapor pressure -6.426 (log10 mmHg).
For Clc1cc(Cl)c2c(c1)Oc1cc(Cl)cc(Cl)c1O2 the data give vapor pressure -6.385 (log10 mmHg).
For CCOc1ccc(CC(N)CNCCN)cc1.Cl.Cl (configuration not stated) the data give vapor pressure -8.642 (log10 mmHg).
For CNC(C)C(O)c1ccccc1.Cl (configuration not stated) the data give vapor pressure -7.634 (log10 mmHg).
For C=CP(=O)(O)O the data give vapor pressure -6.51 (log10 mmHg).
For CC(C)([S-])C(N)C(=O)[O-].[Pb+2] the data give vapor pressure -10.85 (log10 mmHg).
For CC1OC(C)OC(C)OC(C)O1 (configuration not stated) the data give vapor pressure -1.353 (log10 mmHg).
For CSCCC(O)C#N (configuration not stated) the data give vapor pressure -3.25 (log10 mmHg).
For CCCCN(CC)N=O the data give vapor pressure -1.06 (log10 mmHg).
For Brc1c(Br)c(Br)c(Br)c(Br)c1Br the data give vapor pressure -5.249 (log10 mmHg).
For Clc1ccc(C(Cl)(Cl)Cl)c(Cl)c1 the data give vapor pressure -2.824 (log10 mmHg).
For OCC1CO1 (configuration not stated) the data give vapor pressure -0.046 (log10 mmHg).
For CC(Oc1ccc(Oc2ccc(Cl)cc2Cl)cc1)C(=O)O (configuration not stated) the data give vapor pressure -10.63 (log10 mmHg).
For O=C(O)CCCCCCCCCCC(=O)O the data give vapor pressure -9.949 (log10 mmHg).
For Clc1ccccc1-c1cccc(Cl)c1Cl the data give vapor pressure -3.285 (log10 mmHg).
For Clc1ccc(-c2cc(Cl)c(Cl)c(Cl)c2)c(Cl)c1 the data give vapor pressure -5.165 (log10 mmHg).
For FC(F)COC(F)(F)C(F)F the data give vapor pressure 1.888 (log10 mmHg).
For CC(=O)Nc1ccc2c(c1)Cc1ccccc1-2 the data give vapor pressure -3.638 (log10 mmHg).
For O=C(C(F)(F)C(F)(F)F)C(F)(C(F)(F)F)C(F)(F)F the data give vapor pressure 2.391 (log10 mmHg).

Source: data files of OPERA 2.9 (Mansouri et al.), github.com/kmansouri/OPERA.